# Reference: US20190345536A1, “DETECTION METHOD FOR CHROMOSOMAL ABNORMALITIES AND METHOD FOR EVALUATING INDUCIBILITY” (Sumitomo Chemical Company, Limited, priority 2016, published 2019)
# Tested on: human iPS cell-derived T lymphocyte
# Test: Proliferation ability of human iPS cell-derived T lymphocyte by various proliferation stimulation factors (ATP amount, CellTiter-Glo; Comparative Example 1)
# Assay type: cell-based
substance,measurement,setting,value
IL-2: cytokine used as proliferation stimulation factor (Wako),luminescent signal (count),"100 U/mL IL-2, 66 hr, background subtracted",11784 count
same,proliferation rate,"100 U/mL IL-2, 66 hr, percentage of signal at seeding",9.2%
same,proliferation of human iPS cell-derived T lymphocyte by proliferation stimulation,proliferation stimulation for 66 hr,does not proliferate
